{
  "source": "patent US20200181210A1",
  "about": "“MODIFIED CYCLIC PEPTIDES AND THERAPEUTIC USE THEREOF” (THE BROAD INSTITUTE, INC., priority 2017, published 2020)",
  "tested_on": "trypsin",
  "experiment": "trypsin protease digestion resistance of cyclotides (SDS-PAGE)",
  "conditions": "trypsin exposure up to 18 hrs (FIG. 28)",
  "data": [
    {"smiles": "CSCC[C@H](NC(=O)[C@H](CC(C)C)NC(=O)[C@H](Cc1c[nH]c2ccccc12)NC(=O)[C@H](CCC(N)=O)NC(=O)[C@@H](NC(=O)[C@H](Cc1ccccc1)NC(=O)[C@H](CC(=O)O)NC(=O)[C@H](CCC(N)=O)NC(=O)[C@H](C)NC(=O)[C@H](CCCN=C(N)N)NC(=O)[C@H](CCCN=C(N)N)NC(=O)[C@H](CO)NC(=O)[C@H](CC(=O)O)NC(=O)[C@H](CC(C)C)NC(=O)[C@H](Cc1ccc(O)cc1)NC(=O)[C@H](CCCCN)NC(=O)[C@H](CO)NC(=O)[C@H](Cc1ccc(O)cc1)NC(=O)[C@H](CC(=O)O)NC(=O)[C@H](CO)NC(=O)[C@@H](NC(=O)[C@H](Cc1ccccc1)NC(=O)[C@@H](NC(=O)CNC(=O)[C@H](CCC(N)=O)NC(=O)[C@H](CO)NC(=O)[C@@H](N)Cc1c[nH]cn1)[C@@H](C)O)[C@@H](C)O)C(C)C)C(=O)N[C@@H](CC(N)=O)C(=O)N[C@H](C(=O)O)[C@@H](C)O", "note": "[linear glucagon peptide, Glucagon]", "values": [
      {"measurement": "resistance towards trypsin", "result": "degraded"}
    ]}
  ]
}
